These are literature values, as cited in the CATMoS acute toxicity set (Mansouri et al. 2021).

In general, LD50 refers to the dose at which mortality reaches 50%.

“And” between values parts separate entries of the source, which are not always exact repeats. Equal values may be shown once.

A short description of the data set: rat acute oral toxicity. The settings on record: in vivo.

As to `CC(S)C(=O)NCC(=O)O` (stereo unspecified), the LD50 is 1300 mg/kg.

Turning to `O=c1[nH]cc(F)c(=O)[nH]1`, the LD50 was 230 mg/kg.

As for `CCCC(=O)N1CCCN(c2nc(N)c3cc(OC)c(OC)cc3n2)CC1`, the LD50 was 980 mg/kg.

For the compound `C=CCOc1ccc(CC(=O)O)cc1Cl`, the median lethal dose (LD50) is 1050 mg/kg.

`Oc1c(Br)cc(Cl)cc1Cc1cc(Cl)cc(Br)c1O`: the 50% lethal dose (LD50) is 3700 mg/kg.

In the case of `COc1ccc(C(=O)NCc2cccnc2)cc1C(=O)NCc1cccnc1`, the 50% lethal dose (LD50) is 3000 mg/kg.

Take `CCCC(=O)OCC`: the LD50 is 13000 mg/kg.

Consider `O=C(Cn1c(=O)sc2ccc(Cl)cc21)N1CCN(CCO)CC1`, for which the LD50 is 3600 mg/kg and 2300 mg/kg.

On to `CC(=O)OC/C=C(\C)CCC=C(C)C`, for which the median lethal dose (LD50) is 6330 mg/kg.

With `CC(C)C(=O)c1c(C(C)C)nn2ccccc12`, the median lethal dose (LD50) was 1340 mg/kg.

Regarding `CC(C)[C@@H]1CC[C@@H](C)C[C@H]1O`, the LD50 was 3300 mg/kg.

Take `CC(C)=CCCC(C)=CC(=O)O`: the 50% lethal dose (LD50) was 3700 mg/kg.

Consider `COc1ccc(C[C@H](C)NC[C@@H](O)c2ccc(O)c(NC=O)c2)cc1` (racemic), for which the LD50 is 3130 mg/kg.

As for `CN1CCC2=C(C1)c1ccccc1Cc1ccccc12`, the 50% lethal dose (LD50) is 554 mg/kg.

With `CCCCCCC(C=O)=Cc1ccccc1`, the 50% lethal dose (LD50) was 3100 mg/kg.

`NC(=O)c1ncn([C@@H]2O[C@H](CO)[C@@H](O)[C@H]2O)c1O`: the LD50 is 2850 mg/kg.
